Only a part is listed here, and it is no random draw. Some of these compounds have results that are not shown, active ones among them. Calls of active or inactive are those of the source.

The nature of the experiment: UUG initiation codon usage in yeast – whole organism, S. cerevisiae, single point, plate reader, primary screen (AID 602363).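 Also: firefly luciferase made from a UUG start codon reports start codon fidelity.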 The settings on record: S. cerevisiae UUG-firefly luciferase reporter, luminescence/redox ratio; at 18.7 µM; stronger effect = higher value.
In the case of `CN1[C@@H]2CC[C@H]1CC(OC(=O)C(O)(c1ccccc1)c1ccccc1)C2` (some centres undefined), the activity score was inactive: -0.856%. The same measure for `Cc1ccc(C(=O)NCC2(N3CCCCC3)CCCCC2)cc1`: inactive: 3.29%; for `CC(C)N1C(=O)CC2(CCN(CCOC(=O)C(O)(c3ccccc3)c3ccccc3)CC2)C1=O`: inactive: -16.8%.

For `COc1cc(SC)ccc1C(=O)NCC1(N(C)C)CCCCC1`, the activity score was inactive: -25.9%. For `CCN(CC)CC(C)C(C)OC(=O)C(O)(c1ccccc1)c1ccccc1` (centres undefined), the activity score is inactive: -0.526%. Regarding `CN(C)c1ccc(C(=O)NCC2(N(C)C)CCCCC2)cc1`, the activity score was inactive: -13.2%.

For `O=C(NCC1(N2CCCCC2)CCCCC1)c1cccc(Br)c1`, the activity score was inactive: -13.4%. For `Cc1cc(C(=O)NCC2(N3CCCCC3)CCCCC2)ccc1[N+](=O)[O-]`, the activity score is inactive: -10.1%. Consider `COc1ccc(C(=O)NCC2(N(C)C)CCCCC2)cc1`, for which the activity score is inactive: 7.78%.

Turning to `O=C(NCC1(N2CCCCC2)CCCCC1)c1cc(F)c(F)cc1Cl`, the activity score is inactive: -1.38%. The same measure for `COc1cc(C(=O)NCC2(N(C)C)CCCCC2)c([N+](=O)[O-])cc1OC`: inactive: -14.4%; for `CN(C)C1(CNC(=O)c2ccc(Br)cc2)CCCCC1`: inactive: -16.2%; for `O=C(NCC1(N2CCCCC2)CCCCC1)c1cccc(Cl)c1`: inactive: -10.6%. The same measure for `COc1ccc(Cl)cc1C(=O)NCC1(N(C)C)CCCCC1`: inactive: -1.83%; for `CN(C)c1cccc(C(=O)NCC2(N(C)C)CCCCC2)c1`: inactive: -8.16%. The same measure for `O=C(OCCN1CCCC1)C(O)(c1ccccc1)c1ccccc1`: inactive: -14%; for `CC(C)Oc1ccc(C(=O)NCC2(N(C)C)CCCCC2)cc1`: inactive: -9.58%. As to `COc1ccc(Br)c(C(=O)NCC2(N3CCCCC3)CCCCC2)c1`, the activity score is inactive: -2.54%.

For `C=C(C)C#CC(O)(C(=O)OC1CCN(C)CC1)c1ccccc1` (centres undefined), the activity score was inactive: -7.42%.
